# Some of the results follow.
# T1: LIN28A (human?, UniProt Q9H9Z2 1-209)
# T1 sequence: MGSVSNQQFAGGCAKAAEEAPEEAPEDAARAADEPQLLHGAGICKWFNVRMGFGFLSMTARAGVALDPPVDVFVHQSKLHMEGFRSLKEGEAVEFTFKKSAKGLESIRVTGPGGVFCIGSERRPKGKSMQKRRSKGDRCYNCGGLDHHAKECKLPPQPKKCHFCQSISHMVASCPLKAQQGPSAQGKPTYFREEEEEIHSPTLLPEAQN
# T2: CIRBP (Homo sapiens, UniProt Q14011 1-172)
# T2 sequence: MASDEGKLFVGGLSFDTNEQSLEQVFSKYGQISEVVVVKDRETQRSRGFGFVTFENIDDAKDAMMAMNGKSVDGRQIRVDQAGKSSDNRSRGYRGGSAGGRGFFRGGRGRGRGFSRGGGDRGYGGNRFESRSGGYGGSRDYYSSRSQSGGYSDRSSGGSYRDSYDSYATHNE
# T3: DHX36 (Homo sapiens, UniProt Q9H2U1 1-1008)
# T3 sequence: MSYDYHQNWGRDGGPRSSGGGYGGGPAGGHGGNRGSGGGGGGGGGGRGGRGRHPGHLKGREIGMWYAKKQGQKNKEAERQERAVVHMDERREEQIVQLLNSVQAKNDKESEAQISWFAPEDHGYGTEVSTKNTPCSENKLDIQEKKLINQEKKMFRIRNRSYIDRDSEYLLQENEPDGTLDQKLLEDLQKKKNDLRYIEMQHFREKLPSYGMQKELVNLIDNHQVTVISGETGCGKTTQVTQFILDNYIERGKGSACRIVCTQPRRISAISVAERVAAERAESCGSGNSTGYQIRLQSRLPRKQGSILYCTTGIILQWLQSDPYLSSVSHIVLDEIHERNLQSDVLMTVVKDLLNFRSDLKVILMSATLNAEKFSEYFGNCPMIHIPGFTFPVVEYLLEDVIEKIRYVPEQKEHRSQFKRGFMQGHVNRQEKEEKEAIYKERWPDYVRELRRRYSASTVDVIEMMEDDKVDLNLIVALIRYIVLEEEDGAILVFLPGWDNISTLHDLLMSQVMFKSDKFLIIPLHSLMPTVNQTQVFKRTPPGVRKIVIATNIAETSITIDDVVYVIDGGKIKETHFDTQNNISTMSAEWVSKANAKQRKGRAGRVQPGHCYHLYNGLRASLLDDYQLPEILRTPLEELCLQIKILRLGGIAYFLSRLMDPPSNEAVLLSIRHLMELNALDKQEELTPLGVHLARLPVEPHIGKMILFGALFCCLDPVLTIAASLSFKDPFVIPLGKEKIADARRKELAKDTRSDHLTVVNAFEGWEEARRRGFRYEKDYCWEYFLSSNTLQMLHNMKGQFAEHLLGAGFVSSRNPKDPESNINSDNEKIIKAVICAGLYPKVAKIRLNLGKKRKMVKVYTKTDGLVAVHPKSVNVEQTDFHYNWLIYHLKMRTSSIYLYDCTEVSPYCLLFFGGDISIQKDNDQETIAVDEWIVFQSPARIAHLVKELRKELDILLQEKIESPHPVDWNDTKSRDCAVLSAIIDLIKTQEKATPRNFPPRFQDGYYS
# B1: hsa-mir-3150a (structured_RNA)
# RNA: GGGACGAGCGCAUAGGGUUUAUCUCCACGGUGUACGAAGUUUCAGCUCAGCACCUGAACGCCAAGGCUGGGCUGAAGCUUCGUGCAC
# B2: hsa-mir-4446 (structured_RNA)
# RNA: GGGAUACCUCUAUCAUGAGACAACAGGCGGUGUACGAAGUUUCAGCCUUGGCUUCAAUUUACUCCCAGGGCUGAAGCUUCGUGCAC
# B3: hsa-mir-641 (structured_RNA)
# RNA: GGGAGCAUUGGUACAUGCGCUGAACUCAGGUGUACGAAGUUUCAGCCCUCUGUCCUCUGUCCUCUACCUAUAGAGGGCUGAAGCUUCGUGCAC
# B4: hsa-mir-4641 (structured_RNA)
# RNA: GGGAACCGUUGAAGCAGGACUAAUCGUUGGUGUACGAAGUUUCAGCGGCAUCAGAGGACAGCCGCCUGGUGCCGCUGAAGCUUCGUGCAC
# B5: hsa-mir-302a (structured_RNA)
# RNA: GGGACGUGGUCGCAACUUUAGUGAACACGGUGUACGAAGUUUCAGCCUUGCUUUGAAACUAAAGAAGUAAGGCUGAAGCUUCGUGCAC
# B6: hsa-mir-3677 (structured_RNA)
# RNA: GGGAAUGCACGACUGUACGAUUGAUCCUGGUGUACGAAGUUUCAGCUGCAGUGCUGGGCAUGGGCUUCUCGGCUGAAGCUUCGUGCAC
# B7: PARIS_ID1 (structured_RNA)
# RNA: GGGAGGAGAUGCCUUUCCAGAAACCACGGGUGUACGAAGUUUCAGCAGCAUUUCUGAAUCUCCUAUCCAAUACAAAAACUAGGACAAUACAGACAGUAACUCCUAUGGUUACAAUGAACACUCCUGCUGAAGCUUCGUGCAC
# B8: NEAT1_ParasoR_ID14 (structured_RNA)
# RNA: GGGAGGAACUAUCAACUAGGCUAGCGAGGGUGUACGAAGUUUCAGCGUGGUCCCACACCACGCUGAAGCUUCGUGCAC
# B9: hsa-mir-18b (structured_RNA)
# RNA: GGGAAGAAACGUACCGAGUGACCCACCCGGUGUACGAAGUUUCAGCUGCAGUUAGUGAAGCAGCUUAGAAUCUACUGCCGCUGAAGCUUCGUGCAC
# B10: hsa-mir-3611 (structured_RNA)
# RNA: GGGAAAUGCGAUCAUUCGCCUGUCGCACGGUGUACGAAGUUUCAGCACAAUUAUGAAAGAAAAGAAAUUGUGCUGAAGCUUCGUGCAC
# B11: hsa-mir-6880 (structured_RNA)
# RNA: GGGACAAGCUGACGUAAGAAUCCGGAUAGGUGUACGAAGUUUCAGCAGGGCAGCUCCCAUGACUGCCUGACCGCGCUGAAGCUUCGUGCAC
# B12: PARIS_ID26 (structured_RNA)
# RNA: GGGAGCUCCAUCGAACCCCUUAUUUCACGGUGUACGAAGUUUCAGCGUGUCUGCUGGUGAUGCCCAACCCAGUGCUCUGCACCCAGGUCACGCUGAAGCUUCGUGCAC
# B13: hsa-mir-6847 (structured_RNA)
# RNA: GGGCACAAUCUCAGGCCGAUCCCAUGAGGGUGUACGAAGUUUCAGCGAGCUGGAAGGAGUGGGCCUGGCUCGCUGAAGCUUCGUGCAC
# B14: hsa-mir-6840 (structured_RNA)
# RNA: GGGAACACGGCCAAAGGUGCGCAUUUACGGUGUACGAAGUUUCAGCAGAUCCCCUGUUAGAGACGGGCCGCUGAAGCUUCGUGCAC
# B15: hsa-mir-4792 (structured_RNA)
# RNA: GGGAAAGGGACUGCUUUAGCACCUACGAGGUGUACGAAGUUUCAGCUGGCCUGGCAGUGCGUCGGAAGAACAGGGCGGGUGGGGCCGCUGAAGCUUCGUGCAC
# B16: hsa-mir-4744 (structured_RNA)
# RNA: GGGAAGAGACGAGGAGGAAAGAUUUACGGGUGUACGAAGUUUCAGCUAUGACCAGGCCAUAGUAAACAUCAUAGCUGAAGCUUCGUGCAC
# B17: hsa-mir-4441 (structured_RNA)
# RNA: GGGAGGACUCGAUACGCUUACUGUUCACGGUGUACGAAGUUUCAGCGUGUACAGGGAGGAGACUGUACGUGAGAGAUAGUCAGAUCCGCAUGUUAGAGCAGAGUCUCCUUCGUGUACAGGCUGAAGCUUCGUGCAC
# B18: hsa-mir-6820 (structured_RNA)
# RNA: GGGAACACAGCUAAGGAGAAACGCAAGAGGUGUACGAAGUUUCAGCGUCACCAGCCCUCAUGUACUUGUGACGCUGAAGCUUCGUGCAC
# B19: hsa-mir-6848 (structured_RNA)
# RNA: GGGCGAAACCGGCUAAAGGAUUGCUACCGGUGUACGAAGUUUCAGCCCAUGGUGUGCUCUGAUCCCCCUGUGGGCUGAAGCUUCGUGCAC
# B20: hsa-mir-6787 (structured_RNA)
# RNA: GGGAAUACUUCGCGGAUUUGCAAGACUGGGUGUACGAAGUUUCAGCGGCUGCAGGCCCGGCCCCUCUCGCUGAAGCUUCGUGCAC
# B21: hsa-mir-3922 (structured_RNA)
# RNA: GGGAACUGGUCUGCUCCGGAUGCUUAAAGGUGUACGAAGUUUCAGCCAGAGGUCCCACAGCAGGGCUGGAAAGCACACCUGUGGGACUUCUGGCUGAAGCUUCGUGCAC
# B22: hsa-mir-4685 (structured_RNA)
# RNA: GGGAAUUACACUACCGACGCUAAUGGGUGGUGUACGAAGUUUCAGCGCAAGGUUGUUGGUGAUAUGGCUUCCUCUCGCUGAAGCUUCGUGCAC
# Assays:
# Experiment in all cases: FOREST: bead pull-down of RNA structure library v1, barcode microarray; U1A/LIN28A: 20 mM HEPES pH 7.5, 80 mM KCl, 20 mM NaCl, 10% glycerol, 2 mM DTT, 0.1 ug/uL BSA, 4 C; BG4/CIRBP/DHX36: 10 mM Tris-HCl pH 7.5, 100 mM KCl (or LiCl),; high values mean tight binding
# U1A = U1A (Homo sapiens, UniProt P09012)
# LIN28A = biological target: T1, LIN28A
# CIRBP = biological target: T2, CIRBP
# DHX36 = biological target: T3, DHX36
Binder,binding signal (U1A) [z-score],binding signal (LIN28A) [z-score],binding signal (CIRBP) [z-score],binding signal (DHX36) [z-score]
B1,0.712,-0.736,-0.965,-0.651
B2,0.709,-0.271,0.601,-1.48
B3,0.707,-0.635,-0.164,-0.771
B4,0.707,0.588,1.32,0.272
B5,0.707,0.336,-0.719,-0.872
B6,0.705,0.229,-0.15,0.355
B7,2.24,1.17,0.212,-0.197
B8,0.705,-1.91,-0.325,-0.548
B9,0.702,0.227,0.465,-0.124
B10,0.701,-0.32,-0.446,-0.293
B11,0.701,0.0527,-1.27,-0.825
B12,0.699,0.0523,-0.89,0.0289
B13,0.694,1.71,-0.404,0.769
B14,0.692,-0.589,-0.626,-0.453
B15,0.692,0.791,1.19,1.42
B16,0.691,0.882,0.53,0.304
B17,0.689,1.76,1.49,0.359
B18,2.24,-2.02,-1.21,-0.862
B19,0.687,1.06,-0.576,-0.0874
B20,0.683,-0.0573,1.04,0.258
B21,0.681,-0.419,0.905,0.574
B22,0.681,0.916,0.296,-0.202

# From article PMC7723054
